From patent publication US20220000980A1, “Compositions and Methods for use of CXCL12 in Treatment of Bone Disorders” (NEW YORK UNIVERSITY, priority 2018, published 2022)

Tested on: monocortical tibial defect
Test: Monocortical tibial defect repair in mice (microCT new bone volume, Movat's pentachrome histology)
Assay type: in vivo
Experimental: Bilateral tibial monocortical defects (1.0 mm, circular) were created in 16-week-old adult C57BL/6 female mice, which were sacrificed at post-surgical day (PSD) 10 (n=3 to 6). This model heals reliably through intramembranous ossification [Carrera, R., et al., JBMR 30 (Suppl 1), 2015]. At the time of surgery, each defect was treated with 5 μg of rhBMP-2 (R&D Systems) or rhCXCL12a (R&D Systems) dissolved in the liquid phase of a hydrogel composed of hyaluronic acid and chitosan (BRTI). Hydrogel alone was used as the vehicle control. Once daily on PSD 5 to 8, the right tibia was subjected to a sinusoidal, compressive axial load (120 cycles at 2 Hz with 6 N peak load) using a mechanical testing system (TA ElectroForce 3200) [Norman, S. C., et al., J Biomech, 2015. 48(1): p. 53-58]. MicroCT analysis: Tibiae were fixed in 4% paraformaldehyde overnight at 4° C., and defects were scanned at a 6-micron voxel size (SkyScan 1172). Newly mineralized bone tissue was quantified in a volume of interest that extended 1 mm from each edge of the defect in the longitudinal direction using an adaptive thresholding routine (CTAn Software, Bruker). Tibiae were decalcified in 9% formic acid and paraffin embedded. Thin sections (7 μm) were stained with modified Movat's pentachrome staining. Student's T-test was used to determine significance for P<0.05.

## rhBMP-2: FDA-approved therapeutic agent used clinically to enhance bone repair; clinical gold standard (R&D Systems)
Monocortical tibial defect, 5 μg in hydrogel, PSD 10
  cartilage formation (Movat's pentachrome staining): promoted cartilage formation
non-loaded, 5 μg in hyaluronic acid/chitosan hydrogel at surgery, post-surgical day 10, C57BL/6 female mice
  new bone volume by microCT compared to vehicle controls: 2.08 fold
